{
  "source": "paper PMC8480901",
  "about": "(PLoS ONE, 2021)",
  "test_system": "J774.2 mouse macrophages",
  "assay": "LPS-induced cytokine and chemokine levels in J774.2 mouse macrophage cell supernatant (ELISA)",
  "assay_type": "cell-based",
  "conditions": "J774.2 supernatant; for IL-1β / IL-6: individual replicate",
  "note": "Several values for one entry are separate records, joined by “and”; a condition that tells them apart may be missing. Equal entries are not always repeated.",
  "data": [
    {"smiles": "C[C@@H]1C[C@H]2[C@@H]3CCC4=CC(=O)C=C[C@]4(C)[C@@]3(F)[C@@H](O)C[C@]2(C)[C@@]1(O)C(=O)CO", "note": "[Dexamethasone]", "values": [
      {"measurement": "IL-1β Mean", "setting": "0.0003 µM", "value": 251, "unit": "pg/mL"},
      {"measurement": "IL-6 Mean", "setting": "0.0003 µM", "value": 86333, "unit": "pg/mL"},
      {"measurement": "IL-1β", "setting": "0.0003 µM", "value": "243.798 pg/mL and 258.859 pg/mL"},
      {"measurement": "IL-6", "setting": "0.0003 µM", "value": "89162 pg/mL and 83503 pg/mL"},
      {"measurement": "IL-1β Mean", "setting": "0.001 µM", "value": 209, "unit": "pg/mL"},
      {"measurement": "IL-6 Mean", "setting": "0.001 µM", "value": 75753, "unit": "pg/mL"},
      {"measurement": "IL-1β", "setting": "0.001 µM", "value": "191.535 pg/mL and 225.78 pg/mL"},
      {"measurement": "IL-6", "setting": "0.001 µM", "value": "77021 pg/mL and 74486 pg/mL"},
      {"measurement": "IL-1β Mean", "setting": "0.003 µM", "value": 152, "unit": "pg/mL"},
      {"measurement": "IL-6 Mean", "setting": "0.003 µM", "value": 85496, "unit": "pg/mL"},
      {"measurement": "IL-1β", "setting": "0.003 µM", "value": "159.132 pg/mL and 145.203 pg/mL"},
      {"measurement": "IL-6", "setting": "0.003 µM", "value": "89240 pg/mL and 81752 pg/mL"},
      {"measurement": "IL-1β Mean", "setting": "0.01 µM", "value": 108, "unit": "pg/mL"},
      {"measurement": "IL-6 Mean", "setting": "0.01 µM", "value": 64804, "unit": "pg/mL"},
      {"measurement": "IL-1β", "setting": "0.01 µM", "value": "100.919 pg/mL and 115.93 pg/mL"},
      {"measurement": "IL-6", "setting": "0.01 µM", "value": "67940 pg/mL and 61667 pg/mL"},
      {"measurement": "IL-1β Mean", "setting": "0.03 µM", "value": 71, "unit": "pg/mL"},
      {"measurement": "IL-6 Mean", "setting": "0.03 µM", "value": 46592, "unit": "pg/mL"},
      {"measurement": "IL-1β", "setting": "0.03 µM", "value": "66.006 pg/mL and 75.789 pg/mL"},
      {"measurement": "IL-6", "setting": "0.03 µM", "value": "45234 pg/mL and 47949 pg/mL"},
      {"measurement": "IL-1β Mean", "setting": "0.1 µM", "value": 60, "unit": "pg/mL"},
      {"measurement": "IL-6 Mean", "setting": "0.1 µM", "value": 35534, "unit": "pg/mL"},
      {"measurement": "IL-1β", "setting": "0.1 µM", "value": "64.116 pg/mL and 55.423 pg/mL"},
      {"measurement": "IL-6", "setting": "0.1 µM", "value": "34479 pg/mL and 36589 pg/mL"},
      {"measurement": "IL-1β Mean", "setting": "0.3 µM", "value": 49, "unit": "pg/mL"},
      {"measurement": "IL-6 Mean", "setting": "0.3 µM", "value": 33007, "unit": "pg/mL"},
      {"measurement": "IL-1β", "setting": "0.3 µM", "value": "48.888 pg/mL and 49.311 pg/mL"},
      {"measurement": "IL-6", "setting": "0.3 µM", "value": 33007, "unit": "pg/mL"},
      {"measurement": "IL-1β Mean", "setting": "1 µM", "value": 48, "unit": "pg/mL"},
      {"measurement": "IL-6 Mean", "setting": "1 µM", "value": 32296, "unit": "pg/mL"},
      {"measurement": "IL-1β", "setting": "1 µM", "value": "45.029 pg/mL and 51.124 pg/mL"},
      {"measurement": "IL-6", "setting": "1 µM", "value": "33259 pg/mL and 31333 pg/mL"}
    ]}
  ]
}
